# Test results reported in PubChem BioAssay AID2546 (National Center for Advancing Translational Sciences (NCATS), 2010).
# Only a part is listed here, and it is no random draw. Results filed as inconclusive are left out. Some salts and complexes are drawn in separate pieces, as the source files them; their charges need not balance. Calls of active or inactive are those of the source. The call rests on the fitted dose curve; in most records, active means well fitted inhibition curve with a large enough effect; inconclusive means small, poorly fitted or top-dose-only effect, or effect the other way; inactive means flat fitted curve, though single readings scatter.
# Experiment: VP16 counterscreen qHTS for inhibitors of ROR gamma transcriptional activity;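 further: Gal4-VP16 expression switched on by copper sulfate through the metallothionein promoter; nearly all actives have a fitted effect of over 50% in size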
# Conditions: Drosophila S2 Gal4-VP16 UAS-luciferase, luminescence, 20 h; at 53.6 µM (top of the series) unless noted
# On the % scale 0 is the no-effect control and ±100 the full control effect.
row,SMILES,"activity, negative = inhibition"
1,CCCOc1ccc(C(=O)NCC2(N(C)C)CCCCC2)cc1OC,inactive: 19.1%
2,O=C(OC1CN2CCC1CC2)c1ccc([N+](=O)[O-])cc1 (stereo unspecified),inactive: 8.6%
3,COc1ccc2c(c1O)-c1c(O)c(OC)cc3c1[C@H](C2)[N+](C)(C)CC3.O=[N+]([O-])c1cc([N+](=O)[O-])c([O-])c([N+](=O)[O-])c1[O-],inactive: -6.36%
4,COc1cc(OC)c(C(=O)NCC2(N(C)C)CCCCC2)cc1OC,inactive: -8.68%
5,CCOP(=O)(Cl)Cl,inactive: 5.45%
6,COc1ccc(CN(CCCl)CCCl)cc1Cl,inactive: -4.7%
7,CN(C)c1cccc(C(=O)NCC2(N3CCCCC3)CCCCC2)c1,inactive: -5.93%
8,O=[N+]([O-])c1cc([N+](=O)[O-])c(OC2CCCCC2O)c([N+](=O)[O-])c1 (stereo unspecified),inactive: 1.63%
9,O=C(NCC1(N2CCOCC2)CCCCC1)c1cc(=O)[nH]c2ccccc12,inactive: 4.82%
10,COc1cc(C(=O)NCC2(N3CCCCC3)CCCCC2)ccc1OC(F)F,inactive: -0.519%
11,CN1CCN(CCOC(=O)C(O)(c2ccccc2)c2ccccc2)CC1,inactive: 1.33%
12,O=C(NCC1(N2CCCCC2)CCCCC1)c1cccc(C(F)(F)F)c1,inactive: -1.47%
13,N#CC1(Nc2ccccc2)CCN(CCc2ccccc2)CC1,inactive: -3.8%
14,O=C(NCC1(N2CCCCC2)CCCCC1)c1cccc([N+](=O)[O-])c1,inactive: -2.6%
15,O=C(NCC1(N2CCCCC2)CCCCC1)c1ccc(OC(F)F)cc1,inactive: 0.256%
16,COc1cc(C(=O)NCC2(N(C)C)CCCCC2)ccc1OC(F)F,inactive: 2.29%
17,O=C(NCC1(N2CCCCC2)CCCCC1)c1ccc(F)cc1,inactive: -2.19%
18,CCOC(=O)N1CCC(Nc2ccc(F)cc2)CC1,inactive: -5.02%
19,COc1ccc(NC2CCN(CCc3ccccc3)CC2)c(OC)c1,inactive: 1.8%
20,CCOc1ccc(C)cc1CN(CCCl)CCCl,inactive: -3.01%
21,N#CC1(Nc2ccccc2)CCN(Cc2ccccc2)CC1,inactive: -4.76%
22,O=C(OC1CN2CCC1CC2)C1c2ccccc2Oc2ccccc21 (stereo unspecified),inactive: -1.28%
23,CCOC(=O)N1CCC(Nc2ccc(OC)cc2)CC1,inactive: 29.3%
24,Cc1cc(C)cc(N(C(=O)c2ccccc2)C2CCN(C(=O)OC(C)(C)C)CC2)c1,inactive: -0.115%
25,O=C(NCC1(N2CCOCC2)CCCCC1)c1cc2ccccc2o1,inactive: 14.3%
26,CSc1ccccc1C(=O)NCC1(N2CCCCC2)CCCCC1,inactive: -23.4%
